## Yeast mating assay 1: variants of the scFv Ab-14

Reference: Engelhart et al. 2022, doi:10.1038/s41597-022-01779-4. File: FLAb, binding data.

Antigen: PDVDLGDISGINAS, a 14-residue peptide of the SARS-CoV-2 spike HR2 region.

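Phage display of a naive human antibody library on the peptide gave the parent. The library (AAYL50) carries one to three amino acid substitutions per variant, with no insertions or deletions. The assay is AlphaSeq: two haploid yeast populations carry antibody and antigen on their surface. The frequency of each diploid, read from paired DNA barcodes, reflects how well the two displayed proteins bind. The ratio of observed to expected reads was calibrated, replicate by replicate, on BCL2-family standards whose Kd was known from biolayer interferometry. The assay was run in three technical replicates.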

Each scFv is VH, a 15-residue (Gly4Ser)3 linker, VL, as in the parent Ab-14, and differs from it in the CDRs of the light chain only.
VH: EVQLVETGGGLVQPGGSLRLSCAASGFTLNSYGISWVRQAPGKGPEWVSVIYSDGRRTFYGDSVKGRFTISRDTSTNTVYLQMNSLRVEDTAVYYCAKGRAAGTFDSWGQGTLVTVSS
VL: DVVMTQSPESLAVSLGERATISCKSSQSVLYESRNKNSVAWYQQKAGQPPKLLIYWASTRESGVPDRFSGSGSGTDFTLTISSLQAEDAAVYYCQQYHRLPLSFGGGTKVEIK

Each variant is given by its three light chain CDRs, as the data file delimits them; those of the parent are KSSQSVLYESRNKNSVA, WASTRES, QQYHRLPLS.
Scale: log10 of Kd in nM, estimated from mating counts; low values are strong binders.
Averages over replicates are reported, and they cover detected replicates only.
Where no diploid with the target was found in any replicate, the entry reads "not detected": below detection, most likely a poor binder, though not proof of it.
Background: pairings of library AAYL50 with three empty control strains gave a value in 18% of cases (median 4.19, 5th percentile 2.99). Values in that range, when seen in few replicates, are hard to tell from nonspecific mating.

CDR-L1	CDR-L2	CDR-L3	mean log10 Kd (nM)	replicates with signal
KSSSSVLYESENKNSVA	WASTRES	QQYHRLPWS	0.87	3/3
KSSVSVLVESRNKVSVA	WASTRES	QQYHRLPLS	2.93	3/3
KSGKSVLYESRNKNSVI	WASTRES	QQYHRLPLS	not detected	0/3
KSSQSVLVESKNKNSVA	WASTRES	QQDHRLPLS	2.87	3/3
KSSQSVLYESRNKNYVS	WASTRES	QQYHVLPLS	4.89	2/3
KSSQSVLYESRNKNSVK	WASTRES	QWYHGLPLS	not detected	0/3
KSSQSVLYESRNKNSMA	WANTRES	QQYHRKPLS	2.53	1/3
KSSQSVLYTSRIKNSVA	WASWRES	QQYHRLPLS	3.39	3/3
KSSQSVLYESRIKNSVA	WHSTRES	QQYHILPLS	not detected	0/3
GSSQSVLYESHNKNSVA	WASTRES	QNYHRLPLS	4.54	1/3
KSSQSVLYESRVDNSVA	WASTRES	QQYHILPLS	1.32	3/3
KSSQSVLYQSRNKNSVA	WASTRES	QQEHRLALS	1.77	3/3
KSSQSVLYESRNMNSVA	WASTRES	QQYHRLPLF	2.87	3/3
KSSQSVLYESRNKNSVA	WASKNES	QQYHRLPLV	4.62	3/3
KSSQSVLYESRNKNSVA	KAVTRES	QQYSRLPLS	0.01	3/3
KSSQSVLYESRFKNSVA	WASTRCS	QQYHQLPLS	0.91	3/3
KSSQSVNPESRNKNSVA	WASTRES	QQYHRLPES	2.12	3/3
KFSQSVLYESRNKNSVA	WASTRES	QFYHRLPLS	1.98	3/3
TSSQSVLYESRNKNSVA	WASTRPS	QQYSRLPLS	2.05	3/3
KFSQSVLYESRNKNSVA	WAVTRES	QQYHRPPLS	1.13	3/3
KSSQAVLYESKNKNSVA	WASTIES	QQYHRLPLS	not detected	0/3
KSSQSVLTEIRNKNSVA	WAWTRES	QQYHRLPLS	2.81	2/3
LSSQSVLYELRNKNSVQ	WASTRES	QQYHRLPLS	not detected	0/3
KSSQSKHYESRNKNSVA	WASTRES	QQNHRLPLS	3.52	3/3
KSSQSVLYSYRNKNSVA	WASTRES	QQYHRLPLA	2.08	3/3
KSSQKVLYESRNKNVVA	WASTREH	QQYHRLPLS	3.35	1/3
KFSQSVLYESRNKNSSA	WASTRES	QQDHRLPLS	not detected	0/3
KSSQSVLYESRNKNSFA	WASTRES	RQYHRLPLP	not detected	0/3
KSSQSVWYESRNKFSVA	WAWTRES	QQYHRLPLS	3.39	3/3
KSSQSVLLESRNKDSVA	WASTRES	QQYHTLPLS	1.54	3/3
KSTFSVLYESKNKNSVA	WASTRES	QQYHRLPLS	1.15	3/3
KCSQSVLYESRNKNSFA	WASTRES	QQYQRLPLS	2.02	3/3
KSSQSVLYEKYNKNSVA	WASTRES	QQEHRLPLS	2.60	3/3
KSSQSMLAESRNKNSVA	WASTRES	QQYIRLPLS	1.06	3/3
KSSQSVLYETRNKNSVA	WASTRES	QQVHRRPLS	1.32	3/3
KRSQSVLYESRNKNSVK	WASTRES	QQYHRLPLS	not detected	0/3
KSSQSVLYESRNKNSVA	MASKRES	QQYHRLPLR	1.41	3/3
KSSQSVLYESHNKNSTA	WASTRES	QQYHRLPLH	not detected	0/3
KSSQSVLMESRNKNSRA	WASTRES	DQYHRLPLS	3.93	1/3
KSSQSVLYESRMKNQVA	WASTRES	QQYHRLPLS	1.30	3/3
VSSQHVLYESRNKNSVA	WASTRES	QAYHRLPLS	4.44	3/3
KSSQSVLENSRNKNSVA	WASTRES	QQYHRLPLS	0.48	3/3
KQSQSVLQESRNKNSVA	WISTRES	QQYHRLPLS	3.10	2/3
KSQQSVLYESRNKNWVA	WASTRES	QQYHSLPLS	4.44	2/3
KSSQSVVYESRNKNNVA	WASTREA	QQYHRLPLS	0.48	3/3
KSSQSVNYESRNKNSVA	WASQRES	QQYHRIPLS	1.77	3/3
KVSQSVLYESRNKNSVA	WASWRES	QQYERLPLS	0.50	3/3
KSSQSVLYESRNKNSVA	WASGRES	QQYHRKGLS	not detected	0/3
KSSQSVLYETRNKNSVA	WASTRES	QQMHDLPLS	3.23	2/3
KSSQSVLYESRTKNSVA	WAWTREL	QQYHRLPLS	3.68	2/3
KIIQSVLYESRNKNDVA	WASTRES	QQYHRLPLS	2.75	2/3
KSSQSVLYESRNKNSVG	WASTRES	QQDHRLPLP	4.19	2/3
KSSQSVLYESRNKNSVA	WASTRES	QWWVRLPLS	2.75	3/3
KSSQSVLFESRNKNSVA	WHSTRES	QQYHRLPYS	not detected	0/3
KSSQMVLYESRCKNSVP	WASTRES	QQYHRLPLS	not detected	0/3

For reference, 4 entries of the list once more:

{"CDR-L1": "KSSQSVLYETRNKNSVA", "CDR-L2": "WASTRES", "CDR-L3": "QQVHRRPLS", "mean log10 Kd (nM)": "1.32", "replicates with signal": "3/3"}
{"CDR-L1": "KSSQSVLYESRNMNSVA", "CDR-L2": "WASTRES", "CDR-L3": "QQYHRLPLF", "mean log10 Kd (nM)": "2.87", "replicates with signal": "3/3"}
{"CDR-L1": "KSSQSVLYESRNKNSVA", "CDR-L2": "KAVTRES", "CDR-L3": "QQYSRLPLS", "mean log10 Kd (nM)": "0.01", "replicates with signal": "3/3"}
{"CDR-L1": "KSSQSVLYESRNKNSMA", "CDR-L2": "WANTRES", "CDR-L3": "QQYHRKPLS", "mean log10 Kd (nM)": "2.53", "replicates with signal": "1/3"}